Data reported in US7723071B2 (priority 1992, dated 2010).

By UniProt entry, the sequences of proteins in these tests, tags left out. Where a name states a change or a piece, a line headed by the entry shows the natural chain unless it says otherwise.
UniProt P32300, whole entry V68C, looked up: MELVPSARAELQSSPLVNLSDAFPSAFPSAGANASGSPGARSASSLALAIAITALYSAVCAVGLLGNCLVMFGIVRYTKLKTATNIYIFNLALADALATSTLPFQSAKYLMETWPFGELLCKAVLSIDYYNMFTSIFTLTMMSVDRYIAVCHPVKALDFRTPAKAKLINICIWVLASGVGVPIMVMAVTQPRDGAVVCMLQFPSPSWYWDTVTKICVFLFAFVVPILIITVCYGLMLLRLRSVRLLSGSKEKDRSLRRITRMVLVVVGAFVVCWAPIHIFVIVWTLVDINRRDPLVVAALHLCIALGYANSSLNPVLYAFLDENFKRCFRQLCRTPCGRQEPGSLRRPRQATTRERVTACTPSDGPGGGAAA
UniProt P42866, whole entry R47P/S53N/H54D/V245G/R258Q, looked up: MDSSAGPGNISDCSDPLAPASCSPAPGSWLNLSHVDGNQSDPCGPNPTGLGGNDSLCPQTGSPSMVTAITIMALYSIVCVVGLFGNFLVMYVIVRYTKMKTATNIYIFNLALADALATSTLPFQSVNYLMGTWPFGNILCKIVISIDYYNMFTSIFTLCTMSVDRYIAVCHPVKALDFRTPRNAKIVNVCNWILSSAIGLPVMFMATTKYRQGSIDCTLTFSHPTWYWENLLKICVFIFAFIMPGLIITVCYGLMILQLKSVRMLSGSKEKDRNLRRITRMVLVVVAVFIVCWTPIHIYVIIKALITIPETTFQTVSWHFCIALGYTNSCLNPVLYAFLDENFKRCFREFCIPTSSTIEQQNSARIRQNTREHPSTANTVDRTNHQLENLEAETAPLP
UniProt P41146: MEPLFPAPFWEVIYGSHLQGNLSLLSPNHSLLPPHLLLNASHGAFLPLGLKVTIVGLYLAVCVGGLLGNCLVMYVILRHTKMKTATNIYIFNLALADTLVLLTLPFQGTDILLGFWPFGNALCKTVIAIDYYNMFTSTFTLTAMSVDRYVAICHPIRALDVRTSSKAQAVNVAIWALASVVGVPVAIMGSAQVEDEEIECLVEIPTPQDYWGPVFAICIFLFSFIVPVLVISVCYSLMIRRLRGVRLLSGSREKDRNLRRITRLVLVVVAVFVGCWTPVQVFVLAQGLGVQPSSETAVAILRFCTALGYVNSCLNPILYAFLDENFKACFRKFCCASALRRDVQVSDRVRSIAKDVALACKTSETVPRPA

Columns and labels:
[1] = target: DOR-1 clone (delta opioid receptor) (Mus musculus, UniProt P32300, V68C); settings: cell membrane fractions from cells expressing DOR-1
[2] = target: DOR-2 (mMOR-1) mu receptor (Mus musculus, UniProt P42866, H54D/R258Q/R47P/S53N/V245G); settings: mammalian cells transfected with the clone in vector pcDNA
[3] = target: ORL-1 (Homo sapiens, UniProt P41146); settings: stable cell line transfected with ORL-1; cited from earlier work
[4] = target: receptor encoded by the DOR-1 clone (delta opioid receptor) (Mus musculus, UniProt P32300, V68C); test: displacement of 3H-[…] from membranes of COS cells transfected with DOR-1

CO[C@]12CC[C@@]3(C[C@@H]1C(C)(C)O)[C@H]1Cc4ccc(O)c5c4[C@@]3(CCN1CC1CC1)[C@H]2O5
displacement of 125I-DADLE binding [1]: displaced by nanomolar concentrations
binding to transfected cells [2]: also bind
reversal of etorphine-induced cyclase inhibition [3]: reversible with diprenorphine
displacement of 3H-diprenorphine ([4]; 5 nM 3H-diprenorphine, COS cell membranes of cells transfected with DOR-1 (FIGS. 2 and 3)): displaced
displacement of 3H-diprenorphine, rank in decreasing order of affinity ([4]; competition for 3H-diprenorphine, membranes of transfected COS-7 cells (FIGS. 2 and 3)): in decreasing order of affinity, was observed with diprenorphine, etorphine, levorphanol and morphine
